Laboratory results as given in patent US20050175505A1, “Personal monitor to detect exposure to toxic agents” (published 2005).

Chains of the proteins cited; added tags and fusions are not shown. Lines headed by an entry give the natural chain unless they say otherwise; changes in a name come on top. Residues count along the entry.
UniProt P06276, 29-602 limits assumed: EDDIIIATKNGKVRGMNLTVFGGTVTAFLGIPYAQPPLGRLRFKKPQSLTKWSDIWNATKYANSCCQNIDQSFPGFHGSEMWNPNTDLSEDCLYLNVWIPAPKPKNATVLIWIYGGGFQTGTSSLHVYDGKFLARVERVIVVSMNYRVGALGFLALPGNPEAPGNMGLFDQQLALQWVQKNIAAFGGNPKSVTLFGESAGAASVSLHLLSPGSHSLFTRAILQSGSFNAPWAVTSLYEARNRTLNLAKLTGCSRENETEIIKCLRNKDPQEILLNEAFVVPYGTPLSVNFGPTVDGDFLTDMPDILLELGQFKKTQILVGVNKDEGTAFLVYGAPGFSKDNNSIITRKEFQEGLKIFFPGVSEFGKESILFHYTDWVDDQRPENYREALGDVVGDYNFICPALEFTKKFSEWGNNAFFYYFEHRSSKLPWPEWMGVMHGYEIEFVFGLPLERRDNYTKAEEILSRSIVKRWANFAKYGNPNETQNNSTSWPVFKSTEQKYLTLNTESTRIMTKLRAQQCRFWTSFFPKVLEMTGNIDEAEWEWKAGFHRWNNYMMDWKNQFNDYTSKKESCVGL
UniProt P22303: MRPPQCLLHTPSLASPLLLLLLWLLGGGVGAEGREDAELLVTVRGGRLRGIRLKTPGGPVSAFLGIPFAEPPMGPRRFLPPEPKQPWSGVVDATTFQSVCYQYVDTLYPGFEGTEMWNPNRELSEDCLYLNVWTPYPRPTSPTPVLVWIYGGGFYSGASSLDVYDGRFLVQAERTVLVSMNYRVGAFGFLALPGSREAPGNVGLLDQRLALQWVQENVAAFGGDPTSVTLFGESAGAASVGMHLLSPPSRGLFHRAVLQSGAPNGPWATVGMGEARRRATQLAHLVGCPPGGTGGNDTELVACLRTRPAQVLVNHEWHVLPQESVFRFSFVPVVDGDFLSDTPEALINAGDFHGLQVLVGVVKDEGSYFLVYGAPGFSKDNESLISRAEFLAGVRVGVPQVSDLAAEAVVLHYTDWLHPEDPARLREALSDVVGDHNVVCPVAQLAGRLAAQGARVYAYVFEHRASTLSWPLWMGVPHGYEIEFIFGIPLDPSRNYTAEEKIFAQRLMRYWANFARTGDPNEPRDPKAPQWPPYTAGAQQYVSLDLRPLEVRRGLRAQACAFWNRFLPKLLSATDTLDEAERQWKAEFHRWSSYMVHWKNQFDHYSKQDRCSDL

What was measured:
[1] = mean of four out of five volunteers showing an increase
[2] = biological target: T1, plasma cholinesterase (butyrylcholinesterase) (Homo sapiens, UniProt P06276); details: cited from earlier work
[3] = biological target: T2, red blood cell cholinesterase (acetylcholinesterase) (Homo sapiens, UniProt P22303); assay: Cholinesterase activity in RBC lysate with and without quinidine
[4] = biological target: T2, red blood cell cholinesterase (acetylcholinesterase); details: cited from earlier work
[5] = biological target: T1, plasma cholinesterase (butyrylcholinesterase); details: plasma samples treated with quinidine 20 μM; BTC vs AcTC substrate

| SMILES | increase in interstitial fluid melatonin after ingestion (mean) [1] [pg/mL] | inhibition of plasma cholinesterase activity (general statement) [2] | decrease in cholinesterase activity in RBC lysate [3] | inhibition of cholinesterase activity in red blood cells (general statement) [4] | inhibitory effect on plasma cholinesterase activity [5] |
| --- | --- | --- | --- | --- | --- |
| COc1ccc2[nH]cc(CCNC(C)=O)c2c1 | 9.0 ± 6.2 | – | – | – | – |
| C=C[C@H]1C[N@@]2CC[C@H]1C[C@@H]2[C@@H](O)c1ccnc2ccc(OC)cc12 | – | specifically inhibits plasma cholinesterase activity | only a minute decrease | does not inhibit | inhibitory effect was observed only when BTC was used |
